## Yeast mating assay 1: variants of the scFv Ab-14

The measurements come from Engelhart et al. 2022 (doi:10.1038/s41597-022-01779-4) through the FLAb antibody collection.

Antigen: PDVDLGDISGINAS, a 14-residue peptide of the SARS-CoV-2 spike HR2 region.

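Phage display of a naive human antibody library on the peptide gave the parent. The library (AAYL50) carries one to three amino acid substitutions per variant, with no insertions or deletions. Affinity was read by AlphaSeq, a pooled yeast mating assay with surface-displayed partners. After mating in shaken culture at 30 °C for 16 h, diploids were selected and their barcode pairs sequenced. Read counts were normalised to the haploid input and turned into Kd by a linear fit to BCL2-family pairs of known affinity, for each replicate. Mating was done three times.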

Each scFv is VH, a (GGGGS)3 linker, VL, as in the parent Ab-14, and differs from it in the CDRs of the light chain only.
VH: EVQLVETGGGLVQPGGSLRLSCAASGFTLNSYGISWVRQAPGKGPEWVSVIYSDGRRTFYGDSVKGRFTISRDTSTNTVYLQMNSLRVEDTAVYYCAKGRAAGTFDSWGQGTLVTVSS
VL: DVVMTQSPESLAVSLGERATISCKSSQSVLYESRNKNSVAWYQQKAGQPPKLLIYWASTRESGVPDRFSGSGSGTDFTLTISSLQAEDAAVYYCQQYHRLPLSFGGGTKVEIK

Positions count from residue 1 of the parent VL; S25G puts G in place of S. Numbers give log10(Kd / nM), so 0 is 1 nM and 3 is 1 µM. Smaller is tighter. A mean of the replicates is given; it leaves out those without a signal. "nd" means that the variant was in the library but no mating with the target was seen in any replicate; the authors take this as a sign of poor binding, and no number exists. In this assay the parent's reference entry averaged 0.65; its copy inside this library read 1.68. Empty control strains, which show no peptide, gave a signal in 18% of pairings with library AAYL50; the median was 4.19 and 95% of these signals were weaker than 2.99. No background was subtracted. The control count says in how many pairings with the empty strains this scFv gave a signal.

| # | changes | log10 Kd (nM), mean | replicates with signal | control signals |
|---|---|---|---|---|
| 1 | S25G/S26Q/Q95W | 1.91 | 3 of 3 | 5 of 9 |
| 2 | A40L/Q95I/Q96V | nd | 0 of 3 | 1 of 9 |
| 3 | A40T/R60F/Q95K | 5.89 | 1 of 3 | 1 of 9 |
| 4 | V29G/V39E/H98L | nd | 0 of 3 | 0 of 9 |
| 5 | S26L/E61Y/P101N | nd | 0 of 3 | 2 of 9 |
| 6 | S33H/R34T/Y97A | nd | 0 of 3 | 1 of 9 |
| 7 | S28V/W56C/Y97Q | 2.37 | 3 of 3 | 1 of 9 |
| 8 | S28P/L30R | 4.30 | 2 of 3 | 3 of 9 |
| 9 | S26C/Q27K/A57Q | 4.39 | 1 of 3 | 4 of 9 |
| 10 | V29L/W56C/Q95W | 1.56 | 3 of 3 | 1 of 9 |
| 11 | L30D/N35F/W56M | 0.49 | 3 of 3 | 2 of 9 |
| 12 | T59M/Y97G | 1.83 | 3 of 3 | 6 of 9 |
| 13 | E32V/R99W/L100Q | nd | 0 of 3 | 0 of 9 |
| 14 | S28L/K36C/A40C | nd | 0 of 3 | 0 of 9 |
| 15 | S38G/V39P/S62G | nd | 0 of 3 | 0 of 9 |
| 16 | S28E/Y31P/P101M | nd | 0 of 3 | 0 of 9 |
| 17 | S33R/Q96D/L100G | nd | 0 of 3 | 0 of 9 |
| 18 | S25T/W56V | 2.77 | 3 of 3 | 5 of 9 |
| 19 | A57G/S62N/R99K | 0.66 | 3 of 3 | 0 of 9 |
| 20 | S58F/T59E/Y97N | 3.55 | 1 of 3 | 0 of 9 |
| 21 | K24M/N37M/W56K | 0.89 | 3 of 3 | 0 of 9 |
| 22 | L30P/K36I/S38Q | 2.04 | 3 of 3 | 0 of 9 |
| 23 | Q27M/L30A/W56G | -0.20 | 3 of 3 | 5 of 9 |
| 24 | S38Y/Q95E/Y97F | nd | 0 of 3 | 0 of 9 |
| 25 | L30T/R60F/Q96M | nd | 0 of 3 | 1 of 9 |
| 26 | N35G/S58R/P101D | nd | 0 of 3 | 0 of 9 |
| 27 | A40Y/Q96K/L100H | 4.24 | 1 of 3 | 2 of 9 |
| 28 | Y31K/S62D/R99C | 0.70 | 3 of 3 | 2 of 9 |
| 29 | R34V/P101L/L102C | nd | 0 of 3 | 0 of 9 |
| 30 | L30R/W56D/L100S | -0.20 | 3 of 3 | 4 of 9 |
| 31 | S33Y/K36W/S38Q | 2.22 | 3 of 3 | 0 of 9 |
| 32 | L30P/H98V/P101I | nd | 0 of 3 | 1 of 9 |
| 33 | Q27P/L100T/S103W | nd | 0 of 3 | 0 of 9 |
| 34 | V29P/V39L/E61C | 1.70 | 3 of 3 | 1 of 9 |
| 35 | A57C/H98Y/S103W | 3.59 | 2 of 3 | 0 of 9 |
| 36 | S25L/A40K/Y97L | 4.39 | 1 of 3 | 2 of 9 |
| 37 | K24F/Q27A/K36P | 2.53 | 3 of 3 | 1 of 9 |
| 38 | R34E/S58R/E61L | 0.59 | 3 of 3 | 2 of 9 |
| 39 | Q27W/R34V/R60C | 2.74 | 1 of 3 | 1 of 9 |
| 40 | V39K/Q95K/H98S | nd | 0 of 3 | 4 of 9 |
| 41 | S26M/N37P/Q95M | 3.98 | 1 of 3 | 0 of 9 |
| 42 | S25A/Y97C/P101Q | nd | 0 of 3 | 1 of 9 |
| 43 | R60S/Q95C/R99N | 4.77 | 3 of 3 | 2 of 9 |
| 44 | S33N/Q95K/Y97H | nd | 0 of 3 | 0 of 9 |
| 45 | S25W/S33Q | 0.84 | 3 of 3 | 0 of 9 |
| 46 | K36G/V39N/R60G | 4.75 | 3 of 3 | 5 of 9 |
| 47 | Q27P/E61P/H98Q | 0.93 | 3 of 3 | 7 of 9 |
| 48 | K24E/S38R/A40Y | nd | 0 of 3 | 0 of 9 |
| 49 | S25C/E32G/S58C | nd | 0 of 3 | 0 of 9 |

Repeated from above, the 6 best binders with a signal in all replicates:

| changes | log10 Kd (nM), mean | replicates with signal | control signals |
|---|---|---|---|
| L30R/W56D/L100S | -0.20 | 3 of 3 | 4 of 9 |
| Q27M/L30A/W56G | -0.20 | 3 of 3 | 5 of 9 |
| L30D/N35F/W56M | 0.49 | 3 of 3 | 2 of 9 |
| R34E/S58R/E61L | 0.59 | 3 of 3 | 2 of 9 |
| A57G/S62N/R99K | 0.66 | 3 of 3 | 0 of 9 |
| Y31K/S62D/R99C | 0.70 | 3 of 3 | 2 of 9 |